One compound from paper PMC7593677, “Discovery of N-(2-Amino-4-Fluorophenyl)-4-[bis-(2-Chloroethyl)-Amino]-Benzamide as a Potent HDAC3 Inhibitor” (Frontiers in Oncology, 2020) can be followed below.

The target of the assay is T1, HDAC8 (Homo sapiens, UniProt Q9BY41).
T1 construct: purchased BPS Bioscience
T1 sequence (Q9BY41 1-377): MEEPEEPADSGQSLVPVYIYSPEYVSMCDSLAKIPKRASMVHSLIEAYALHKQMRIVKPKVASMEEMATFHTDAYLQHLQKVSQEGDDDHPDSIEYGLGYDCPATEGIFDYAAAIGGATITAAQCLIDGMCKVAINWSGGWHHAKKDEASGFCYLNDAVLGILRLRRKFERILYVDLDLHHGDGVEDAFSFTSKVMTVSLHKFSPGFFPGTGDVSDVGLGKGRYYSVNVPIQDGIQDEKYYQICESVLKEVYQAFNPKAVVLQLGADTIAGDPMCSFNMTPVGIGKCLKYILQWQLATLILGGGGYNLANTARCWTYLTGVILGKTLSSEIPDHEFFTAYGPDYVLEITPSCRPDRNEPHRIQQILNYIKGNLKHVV
Description: biochemical. The procedure: All of the HDAC enzymes tested were purchased from BPS Bioscience. First, 20 μL of each recombinant HDAC enzyme solution (HDAC1, 2, 3, 4, 6, 7, 8, and 9) was mixed with various concentrations of tested compound samples (20 μL) in a 96-well plate. The mixture was incubated at 30°C for 1 h for the dose-dependent assay. Additionally, mixtures were incubated for 15, 30, 60, and 90 min, for the time-dependent assay, and then 10 μL of fluorogenic substrate [3 mM Boc-Lys(acetyl)-AMC or Boc-Lys (trifluoroacetyl)-AMC for HDAC1/2/3/6 or HDAC4/7/8/9, respectively] was added. Then, the acetylation reaction was initiated by adding HDAC substrate working solution and incubating at 30°C for 2 h. After the desired time, 10 μL developer with trypsin and trichostatin A was added to stop the reaction, and then the mixture was incubated at 30°C for another 30 min.
A microplate reader was used to determine fluorescence intensity at excitation: 360 nm and emission: 460 nm. The inhibition ratios were calculated by comparing the fluorescence intensities from tested wells to those of controls. The IC50 curves and values were then obtained with GraphPad Prism 6.0 software.

For orientation: IC50 means the point on the concentration scale where inhibition reaches its midpoint. The low end stands for greater potency in that assay, the high end for weaker potency in that assay. As for `O=C(CCCCCCC(=O)Nc1ccccc1)NO` [SAHA, Vorinostat, reference compound], half-maximal inhibition (IC50) was put at 4.12 µM.
